In US20240118265A1, “MATERIALS AND METHODS TO IMPROVE IN VITRO TOXICITY PREDICTIONS” (priority 2022, published 2024):

Experiments:
[1] = OptiSafe Eye Irritation Test (macromolecular/biochemical ocular irritation test), surfactant procedure; conditions: main score multiplied by DM distance traveled and correction factor
[2] = Depth of Migration (DM) test; assay type: physicochemical; conditions: 1:100 dilution in DM dye solution, 30 μL, 15° platform, after 30-120 seconds; table value
eye = conditions: GHS category; cited from earlier work
cultured epithelium = conditions: without DM test; cited from earlier work
isolated chicken eye = conditions: without DM test; cited from earlier work
RhCE tissues = conditions: without DM test; cited from earlier work

Substance | ocular irritancy prediction with the Depth of Migration (DM) test [1] | DM Distance Traveled [2] | in vivo GHS (eye) | Short Time Exposure (STE) prediction versus in vivo (cultured epithelium) | ICE prediction versus in vivo (isolated chicken eye) | EpiOcular prediction versus in vivo (RhCE tissues)
Sodium lauroyl sarcosinate (10%) | did not meet criteria |  |  |  |  | 
Propasol solvent P |  | 4.5 | Cat. 2 | false negatives |  | 
Maneb |  | 4.5 | Cat. 2 |  | false negatives | 
2-Pseudoionone |  | 4.5 | Cat. 2 |  |  | false negatives
